US3974140A, “Ureidoacetamido-penicillins” (Bayer Aktiengesellschaft, priority 1970, dated 1976)

Test system: Pseudomon. aer. F 41
Experiment: Surviving mice after intraperitoneal infection and subcutaneous therapy
Assay type: in vivo, white mice, CF1 strain
Conditions: 30 min before and 2, 4, 6 hours after infection, 1st day
Description: The experiments on animals (see Table 3) were carried out with white mice of the CF1 strain. The infection took place intraperitoneally with the particular bacterium indicated.

Measured: Number of surviving mice

CC1(C)S[C@@H]2[C@H](NC(=O)[C@H](NC(=O)N3CCNC3=O)c3ccccc3)C(=O)N2[C@H]1C(=O)O [Example 144 A, D(-)-α-(Imidazolidin-2-on-1-yl-carbonylamino)-benzyl-penicillin]
100%: Dose E = 50,000 units/kg | Dose F = 75,000 units/kg | Dose G = 150,000 units/kg | Dose H = 200,000 units/kg
